# AlphaSeq binding of Ab-14 heavy chain variants to a spike HR2 peptide

The measurements come from Engelhart et al. 2022 (doi:10.1038/s41597-022-01779-4) through the FLAb antibody collection.

Target: peptide PDVDLGDISGINAS, taken from heptad repeat 2 (HR2) of SARS-CoV-2 spike.

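The library (AAYL49) carries one to three amino acid substitutions per variant, with no insertions or deletions. The assay is AlphaSeq: two haploid yeast populations carry antibody and antigen on their surface. Binding brings cells together so that they mate, and sequencing counts the barcode pairs among the diploids. Read counts were normalised to the haploid input and turned into Kd by a linear fit to BCL2-family pairs of known affinity, for each replicate. Each pool was mated in three replicate cultures.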

Parent scFv Ab-14: VH joined to VL by a 15-residue (Gly4Ser)3 linker. Changes lie in the heavy chain CDRs alone.
VH: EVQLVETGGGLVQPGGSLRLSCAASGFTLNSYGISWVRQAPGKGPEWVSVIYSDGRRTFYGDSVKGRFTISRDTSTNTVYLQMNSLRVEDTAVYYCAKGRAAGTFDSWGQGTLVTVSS
VL: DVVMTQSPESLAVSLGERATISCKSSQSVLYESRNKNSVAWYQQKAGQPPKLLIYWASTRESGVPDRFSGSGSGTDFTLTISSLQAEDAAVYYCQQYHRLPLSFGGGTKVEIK

Changes read parent residue, position, new residue, counted from the first residue of the VH shown.
This list gathers variants with a substitution at R57 (VH, numbered from residue 1).
Kd is apparent (estimated from mating counts) and averaged on the log scale over replicates with a signal. Smaller is tighter.
"nd" marks a missing value. The strain was present, yet no cells mated with the target were sequenced in any replicate, which points to weak or no binding.
Nonspecific signal, from three strains lacking the peptide, appeared in 15% of pairings of library AAYL49, centred on 11 µM (5% of these signals below 680 nM); values are not corrected for it.
For reference, the parent read 4.4 nM as the reference entry and 13 µM (one replicate of three) as a member of this library.

- R56D R57D: nd (0 of 3 replicates)
- R57F S63M S107M: nd (0 of 3 replicates)
- S35E R57H S63H: 690 nM (1 of 3 replicates)
- Y32I R57A Y60R: nd (0 of 3 replicates)
- L29E R57M G99S: 49 µM (2 of 3 replicates)
- R56T R57W T104S: nd (0 of 3 replicates)
- G26M R57N D62F: nd (0 of 3 replicates)
- R57N S63H: 4.7 µM (1 of 3 replicates)
- R56Y R57I T104K: 24 µM (2 of 3 replicates)
- S31G D54C R57M: 180 µM (1 of 3 replicates)
- Y52N R57S V64S: 51 µM (1 of 3 replicates)
- R57W A101K: 40 µM (2 of 3 replicates)
- Y52H R57C F59I: nd (0 of 3 replicates)
- Y32C R57S D62E: nd (0 of 3 replicates)
- R57Y S63D G103D: nd (0 of 3 replicates)
- G55D R56E R57Y: nd (0 of 3 replicates)
- G33P R57V F105Q: nd (0 of 3 replicates)
- R57N F59Y T104L: nd (0 of 3 replicates)
- R57A Y60W S63Y: nd (0 of 3 replicates)
- I51R R57L G103T: 1.9 µM (2 of 3 replicates)
- G55A R56C R57Y: nd (0 of 3 replicates)
- V50S R57K: 150 µM (1 of 3 replicates)
- S35M G55Y R57H: 940 nM (1 of 3 replicates)
- I51N R57Y R100Y: 37 µM (1 of 3 replicates)
- I51P D54K R57Y: nd (0 of 3 replicates)
- D54W R57G G103D: 11 µM (1 of 3 replicates)
- R57L A101N F105Y: nd (0 of 3 replicates)
- R57N D106G: 740 nM (2 of 3 replicates)
- T28R R57M A102R: nd (0 of 3 replicates)
- R57T F105G D106E: 10 µM (1 of 3 replicates)
- F27L Y32A R57N: 77 µM (2 of 3 replicates)
- L29G R57F V64H: nd (0 of 3 replicates)
- R57E K65S: 16 µM (2 of 3 replicates)
- R57H A101I: 44 nM (3 of 3 replicates)
- T28V I51M R57Y: nd (0 of 3 replicates)